Molecular target: Short transient receptor potential channel 6 (Mus musculus) (UniProt Q61143)
Assay: TRPC6 inhibitor potency, dose response, cell-based, mouse TRPC6, HEK293, membrane potential (AID 2696)
Conditions: TRPC6-expressing cells, fluorescence ratio calcium influx

Sequences of proteins named here, by UniProt entry; tags and fusion partners are left off.
UniProt Q61143, whole entry: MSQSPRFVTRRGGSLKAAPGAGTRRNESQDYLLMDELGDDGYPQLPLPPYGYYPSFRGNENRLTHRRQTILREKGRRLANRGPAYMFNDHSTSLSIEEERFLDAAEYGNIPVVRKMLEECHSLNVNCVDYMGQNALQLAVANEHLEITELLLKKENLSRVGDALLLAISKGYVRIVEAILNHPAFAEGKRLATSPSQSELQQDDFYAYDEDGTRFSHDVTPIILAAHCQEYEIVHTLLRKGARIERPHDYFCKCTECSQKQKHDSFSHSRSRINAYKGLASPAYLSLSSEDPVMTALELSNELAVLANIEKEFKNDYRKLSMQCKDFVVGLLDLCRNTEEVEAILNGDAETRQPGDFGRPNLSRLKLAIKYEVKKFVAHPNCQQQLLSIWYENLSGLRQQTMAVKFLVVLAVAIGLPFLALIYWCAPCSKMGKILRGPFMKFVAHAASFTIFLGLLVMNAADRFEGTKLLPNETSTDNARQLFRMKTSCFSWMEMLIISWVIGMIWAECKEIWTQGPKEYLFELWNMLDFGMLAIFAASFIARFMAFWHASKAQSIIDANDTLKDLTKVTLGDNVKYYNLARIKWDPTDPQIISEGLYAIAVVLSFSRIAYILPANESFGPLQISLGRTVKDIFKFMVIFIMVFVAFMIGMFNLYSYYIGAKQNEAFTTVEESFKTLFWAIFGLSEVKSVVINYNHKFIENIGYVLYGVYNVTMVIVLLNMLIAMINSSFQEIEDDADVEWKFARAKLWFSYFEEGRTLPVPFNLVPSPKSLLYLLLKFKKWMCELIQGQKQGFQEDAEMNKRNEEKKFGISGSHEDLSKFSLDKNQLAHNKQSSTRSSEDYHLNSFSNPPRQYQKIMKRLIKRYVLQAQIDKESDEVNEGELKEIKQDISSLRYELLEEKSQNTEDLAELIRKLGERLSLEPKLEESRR

SMILES | IC50 [nM]
CCOC(=O)c1ccc(NP(C)(=O)Oc2ccc(Cl)cc2)cc1 (stereo not given) | 79400
CN(C)CCOC(=O)C(O)(c1ccccc1)C1CCCCC1 (stereo not given) | 1000
CN(C)CCOC(=O)C(O)(c1ccccc1)C1CCCC1 (stereo not given) | 450
CCN(CC)CCCOC(=O)C(O)(c1ccccc1)C1CCCCC1 (stereo not given) | 80
O=C(OCCCN1CCCC1)C(O)(c1ccccc1)C1CCCCC1 (stereo not given) | 200
